Reference: ChEMBL document CHEMBL1129994, “Synthesis and transporter binding properties of 2,3-diphenyltropane stereoisomers. Comparison to 3beta-phenyltropane-2beta-carboxylic acid esters” (J Med Chem, 1997)

Amino acid sequences for entries named in this document (tags omitted).
UniProt P23977, whole entry: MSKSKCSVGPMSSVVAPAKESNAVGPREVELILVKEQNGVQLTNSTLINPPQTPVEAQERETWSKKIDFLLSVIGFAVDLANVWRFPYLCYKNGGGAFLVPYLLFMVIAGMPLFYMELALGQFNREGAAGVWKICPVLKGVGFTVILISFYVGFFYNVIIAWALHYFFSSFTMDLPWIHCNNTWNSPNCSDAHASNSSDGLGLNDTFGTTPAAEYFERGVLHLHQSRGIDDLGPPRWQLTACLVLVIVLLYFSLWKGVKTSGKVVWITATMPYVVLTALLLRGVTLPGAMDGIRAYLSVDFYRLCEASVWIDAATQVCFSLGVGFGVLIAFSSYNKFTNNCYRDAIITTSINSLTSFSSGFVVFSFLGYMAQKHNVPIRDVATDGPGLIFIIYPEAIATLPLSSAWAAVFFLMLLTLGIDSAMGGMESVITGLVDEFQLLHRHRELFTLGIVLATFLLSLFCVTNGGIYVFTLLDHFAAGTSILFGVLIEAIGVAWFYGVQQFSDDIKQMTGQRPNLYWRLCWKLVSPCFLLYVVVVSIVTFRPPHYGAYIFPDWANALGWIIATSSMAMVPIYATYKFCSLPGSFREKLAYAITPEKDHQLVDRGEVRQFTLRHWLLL

Biological target: Sodium-dependent dopamine transporter (Rattus norvegicus, UniProt P23977)
Experiment: Inhibitory activity against Dopamine transporter using 0.5 nM [3H]WIN-35428 as radioligand

`CN1[C@@H]2CC[C@H]1[C@H](c1ccccc1)[C@H](c1ccccc1)C2` (racemic) showed an IC50 of 1270 nM.
